Usually IC50 stands for the concentration that inhibits the measured activity by half. What is called Ki is a dissociation constant, usually derived from enzyme kinetics or from competition with a known ligand.

The values below come from publication PMC4255142 (Bioorganic & medicinal chemistry letters, 2014).

This assay deals with T1, holocarboxylase synthetase (HLCS) (Homo sapiens, UniProt P50747).
T1 sequence (P50747 1-726): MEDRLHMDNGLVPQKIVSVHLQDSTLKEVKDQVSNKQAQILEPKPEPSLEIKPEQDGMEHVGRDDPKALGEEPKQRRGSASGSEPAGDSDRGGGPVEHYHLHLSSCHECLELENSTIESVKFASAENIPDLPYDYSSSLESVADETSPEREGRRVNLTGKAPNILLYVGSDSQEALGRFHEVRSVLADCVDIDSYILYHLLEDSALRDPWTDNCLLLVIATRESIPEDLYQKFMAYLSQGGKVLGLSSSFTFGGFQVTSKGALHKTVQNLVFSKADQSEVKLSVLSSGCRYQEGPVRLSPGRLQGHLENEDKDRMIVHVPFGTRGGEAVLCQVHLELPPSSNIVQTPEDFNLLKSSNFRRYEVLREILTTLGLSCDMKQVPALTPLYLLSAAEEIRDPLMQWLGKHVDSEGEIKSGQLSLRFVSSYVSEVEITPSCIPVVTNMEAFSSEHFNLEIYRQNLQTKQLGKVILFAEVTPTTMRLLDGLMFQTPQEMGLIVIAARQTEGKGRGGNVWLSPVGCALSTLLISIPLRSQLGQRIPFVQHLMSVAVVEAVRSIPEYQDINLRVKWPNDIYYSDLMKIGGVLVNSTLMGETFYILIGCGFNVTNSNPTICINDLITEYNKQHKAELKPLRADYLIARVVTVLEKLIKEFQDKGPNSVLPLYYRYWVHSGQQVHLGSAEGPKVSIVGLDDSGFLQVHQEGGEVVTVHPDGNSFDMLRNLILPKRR
The assay can be described thus: Inhibition of HLCS-catalysed biotinylation of recombinant p67. It is filed as biochemical.

`Nc1ncnc2c1ncn2[C@@H]1O[C@H](COP(=O)(O)OCCCCC[C@@H]2SC[C@@H]3NC(=O)N[C@@H]32)[C@@H](O)[C@H]1O` [biotinol-5'-AMP, biotinol-5′-AMP, reference compound]: the IC50 came to 7 µM and the Ki stood at 7 µM.
